Assay results taken from PubChem BioAssay AID540303 (National Center for Advancing Translational Sciences (NCATS), 2011).
Only a part is listed here, and it is no random draw. Results filed as inconclusive are left out. Some structures show a salt or complex split into parts, the way the source records it. The source made the active and inactive calls. Calls follow the shape of the dose curve; as a rule, active = well fitted inhibition curve with a large enough effect; inconclusive = small, poorly fitted or top-dose-only effect; inactive = no such curve, though single readings can be large or run the other way; tested in mouse RAW 264.7 cells.

test: qHTS for Inhibitors of Cell Surface uPA Generation; settings: cell surface uPA generation assay; at 38.3 µM (top of the series); also: nearly all actives have a fitted effect of over 55% in size
Description: The overall objective of this project is to perform a quantitative high throughput screen (qHTS) to identify novel compounds that inhibit the generation of cell surface urokinase activity. The urokinase plasminogen activator (uPA) is one of the two primary endogenous systems that mediate plasminogen activation into plasmin. Members of this system, including uPA and its receptor (uPAR), are overexpressed in several malignant tumors. This system plays a major role in adhesion, migration, invasion and metastasis of cancer cells. Small molecule inhibitors of the uPA system will serve as probes to understand the molecular mechanisms of the uPA cascade and better understanding the microenvironmental circumstances that facilitate the activation of plasminogen by uPA, and finally may provide novel candidate agents for anticancer drug therapy.
[…] […] Upon inhibition of the uPA activation cascade, the subsequent cell surface uPA activity-dependent translocation of LF into the cytoplasm is inhibited. ATP-Lite is used to measure intracellular ATP concentrations, which remain increased if LF entry into the cytoplasm is inhibited. This validation assay was performed using a small set of validation compounds.
NIH Chemical Genomics Center [NCGC]
NIH Molecular Libraries Probe Centers Network [MLPCN]
Assay Submitter (PI): Thomas Bugge, National Institute of Dental and Craniofacial Research, NIH
Cultured RAW 264.7 were dispensed into 1536-well clear bottom, white walled tissue culture plates at a density of 4000 cells/well and were incubated overnight (12-16 h) at 37 C in a 5% CO2 incubator. Serially diluted compounds in 23 nl DMSO were added to cells. […] Compound and reagent-treated plates were incubated for 24 h at 37 C in a 5% CO2 incubator. Perkin Elmer ATPlitetrade mark 1 step (3 ul) was then added to each well. Luminescence was detected using a Perkin Elmer ViewLuxtrade mark plate reader.
1.Dispensing RAW 264.7 cells into 1536-well, white walled tissue culture plates at a density of 4000 cells/well (4 uL).
2.Incubation at 37 C in a 5% CO2 incubator overnight.
3.Serially diluting compounds (1:5 serial dilution; 0.0024 uM to […] final concentration) in 23 nl DMSO.
5.Incubating the compound and reagent-treated plates for 24 hours at 37 C in a 5% CO2 incubator.
6.Adding ATP-Lite (3 ul).
7.Reading plates by ViewLux with an exposure length of 5 seconds.
% is scaled to controls: 0 for no effect and ±100 for the full control effect.

SMILES	activity change, negative = inhibition
O=C(NCC1(N2CCCCC2)CCCCC1)c1cccc(C(F)(F)F)c1	inactive: -5.08%
O=[N+]([O-])c1cc([N+](=O)[O-])c(NCC2CCS(=O)(=O)C2)c([N+](=O)[O-])c1 (stereo unspecified)	inactive: 9.63%
CC(C)c1ccc(C(=O)NCC2(N3CCOCC3)CCCCC2)cc1	inactive: -5.4%
COc1ccc(NC2CCN(C(=O)OC(C)(C)C)CC2)cc1	inactive: 12.2%
CN1CCN(CCOC(=O)C(O)(c2ccccc2)c2ccccc2)CC1	inactive: -0.339%
O=C(NCC1(N2CCOCC2)CCCCC1)c1cc(=O)[nH]c2ccccc12	inactive: 3.98%
COc1cc(C(=O)NCC2(N3CCCCC3)CCCCC2)ccc1OC(F)F	inactive: -2.8%
O=C(NCC1(N2CCCCC2)CCCCC1)c1ccc(OC(F)F)cc1	inactive: 2.44%
CSc1ccc(C(=O)NCC2(N3CCOCC3)CCCCC2)cc1	inactive: -1.44%
O=C(NCC1(N2CCCCC2)CCCCC1)c1cccc([N+](=O)[O-])c1	inactive: 2.3%
N#CC1(Nc2ccccc2)CCN(CCc2ccccc2)CC1	inactive: 3.47%
CCN1CCC(Nc2ccc(Cl)cc2)CC1	inactive: 6.62%
COc1ccc2c(c1O)-c1c(O)c(OC)cc3c1[C@H](C2)[N+](C)(C)CC3.O=[N+]([O-])c1cc([N+](=O)[O-])c([O-])c([N+](=O)[O-])c1[O-]	inactive: -2.86%
O=C(NCC1(N2CCCCC2)CCCCC1)c1cncc(Br)c1	inactive: 2.15%
CN1CCC(Nc2cccc(F)c2)CC1	inactive: -6.15%
O=C(OC1CN2CCC1CC2)c1ccc([N+](=O)[O-])cc1 (stereo unspecified)	inactive: -4%
CCCOc1ccc(C(=O)NCC2(N(C)C)CCCCC2)cc1OC	inactive: 1.39%
CN(C)c1cccc(C(=O)NCC2(N3CCCCC3)CCCCC2)c1	inactive: -1.37%
O=[N+]([O-])c1cc([N+](=O)[O-])c(OC2CCCCC2O)c([N+](=O)[O-])c1 (stereo unspecified)	inactive: -0.538%
COc1ccc(CN(CCCl)CCCl)cc1Cl	inactive: -2.13%
CC(C)c1ccc(NC2CCN(C(=O)OC(C)(C)C)CC2)cc1	inactive: 1.21%

SMILES	activity change, negative = inhibition
O=C(NCC1(N2CCOCC2)CCCCC1)c1cc(F)c(F)cc1Cl	inactive: -8.87%
COc1cc(OC)c(C(=O)NCC2(N(C)C)CCCCC2)cc1OC	inactive: 1.08%
O=C(NCC1(N2CCOCC2)CCCCC1)c1cc2ccccc2o1	inactive: 9.9%
Cc1cc(C)cc(N(C(=O)c2ccccc2)C2CCN(C(=O)OC(C)(C)C)CC2)c1	inactive: 2.43%
O=C(NCC1(N2CCCCC2)CCCCC1)c1ccc(Cl)nc1	inactive: -0.693%
CCOC(=O)N1CCC(Nc2ccc(OC)cc2)CC1	inactive: 1.88%
O=C1C(O)=C([N+](=O)[O-])C(=O)C(O)=C1[N+](=O)[O-]	inactive: 4.84%
COc1ccc(Cl)cc1C(=O)NCC1(N2CCOCC2)CCCCC1	inactive: 1.94%
O=C(OC1CN2CCC1CC2)C1c2ccccc2Oc2ccccc21 (stereo unspecified)	inactive: 8.01%
N#CC1(Nc2ccccc2)CCN(Cc2ccccc2)CC1	inactive: -7.88%
O=C(NCC1(N2CCCCC2)CCCCC1)c1ccc(Cl)s1	inactive: 3.92%
O=C(NCC1(N2CCCCC2)CCCCC1)c1cccs1	inactive: -1.46%
O=C(NCC1(N2CCCCC2)CCCCC1)c1ccc(=O)[nH]c1	inactive: 3.11%
CC(C)(C)OC(=O)N1CCC(N(C(=O)c2ccccc2)c2ccc(F)cc2)CC1	inactive: -7.1%
COc1ccc(C(=O)NCC2(N3CCCCC3)CCCCC2)c(OC)c1OC	inactive: -7.3%
COc1ccc(C(=O)NCC2(N3CCCCC3)CCCCC2)cc1	inactive: 5.85%
Cc1cccc(NC2(C#N)CCN(Cc3ccccc3)CC2)c1	inactive: 1.68%
CSc1ccccc1C(=O)NCC1(N2CCCCC2)CCCCC1	inactive: 0.86%
COc1cc(C(=O)NCC2(N(C)C)CCCCC2)ccc1OC(F)F	inactive: 2.37%
CCOC(=O)N1CCC(Nc2cccc(C)c2)CC1	inactive: 14.4%
CCOc1ccc(C)cc1CN(CCCl)CCCl	inactive: -8.13%

SMILES	activity change, negative = inhibition
O=C1CCN(Cc2ccccc2)CC1	inactive: 0.105%
CCOC(=O)N1CCC(Nc2ccc(F)cc2)CC1	inactive: 7.16%
O=C(NCC1(N2CCCCC2)CCCCC1)c1ccc(F)cc1	inactive: 2.82%
CCCCOc1ccc(C(=O)NCC2(N3CCOCC3)CCCCC2)cc1	inactive: 1.41%
O=P1(N(CCCl)CCCl)SCCCS1	inactive: -2.16%
CCN1CCC(Nc2cccc(F)c2)CC1	inactive: 2.35%
Cc1ccccc1NC1(C#N)CCN(Cc2ccccc2)CC1	inactive: 2.15%
Cn1c(=O)[nH]cc(N(CCCl)CCCl)c1=O	inactive: 1.74%
CN(C)c1ccc(C(=O)NCC2(N3CCCCC3)CCCCC2)cc1	inactive: -3.92%
O=C(NCC1(N2CCCCC2)CCCCC1)c1ccco1	inactive: 3.46%
COc1cc(OC)cc(C(=O)NCC2(N3CCCCC3)CCCCC2)c1	inactive: -2.99%
CC(=O)N(c1ccccc1)C1CCNCC1	inactive: -0.247%
Cc1ccc(NC2(C#N)CCN(Cc3ccccc3)CC2)cc1	inactive: 1.6%
Fc1ccccc1NC1CCN(Cc2ccccc2)CC1	inactive: -3.11%
Cc1ccc(C(=O)NCC2(N3CCCCC3)CCCCC2)o1	inactive: -2.12%
CCC(CO)(C(=O)OC1CN2CCC1CC2)c1ccccc1 (stereo unspecified)	inactive: 11.2%
COc1cccc(C(=O)N(c2cc(C)cc(C)c2)C2CCN(C(=O)OC(C)(C)C)CC2)c1	inactive: 5.95%
COc1cc(OC)cc(C(=O)NCC2(N3CCOCC3)CCCCC2)c1	inactive: -4.67%
CN1CCC(Nc2ccc(Cl)cc2)CC1	inactive: 3.32%
CN1CCC(Nc2ccc(F)c(Cl)c2)CC1	inactive: -6.41%
CCOc1ncccc1C(=O)NCC1(N2CCOCC2)CCCCC1	inactive: -2%

SMILES	activity change, negative = inhibition
CCCOc1ccc(C(=O)NCC2(N(C)C)CCCCC2)cc1	inactive: 5.55%
O=C(O)C1(Nc2ccccc2)CCN(Cc2ccccc2)CC1	inactive: -0.509%
CC(C)(C)OC(=O)N1CCC(Nc2ccccc2)CC1	inactive: 4.04%
N/C(=N\O)c1c(N)no[n+]1[O-]	inactive: 1.66%
CCOC(=O)N1CCC(Nc2ccc(C)cc2)CC1	inactive: 4.36%
O=C(O)c1cccc(Nc2c([N+](=O)[O-])cc([N+](=O)[O-])cc2[N+](=O)[O-])c1	inactive: -0.24%
O=C(OC1CN2CCC1CC2)C1c2ccccc2C=Cc2ccccc21 (stereo unspecified)	inactive: -2.81%
CCc1cc(C(=O)NCC2(N3CCCCC3)CCCCC2)sc1C	inactive: -3.8%
O=C(NCC1(N2CCOCC2)CCCCC1)c1cc(Br)ccc1Cl	inactive: -4.63%
COc1cc(C(=O)NCC2(N3CCOCC3)CCCCC2)cc(OC)c1C	inactive: -9.03%
COc1ccc(C(=O)NCC2(N3CCOCC3)CCCCC2)cc1OC	inactive: -8.23%
Cc1cc(N(CCCl)CCCl)ccc1C=O	inactive: -8.26%
CCCN1CCC(Nc2cc(OC)cc(OC)c2)CC1	inactive: 0.127%
c1ccc(CN2CCC(Nc3ccccc3)CC2)cc1	inactive: -0.098%
CN(C)C1(CNC(=O)c2cccc(C#N)c2)CCCCC1	inactive: -6.07%
CC(C)(C)OC(=O)N1CCC(N(C(=O)c2ccccc2)c2ccc(Cl)cc2)CC1	inactive: 1.97%
N#Cc1ccc(C(=O)NCC2(N3CCCCC3)CCCCC2)cc1	inactive: 2.57%
CCOC(=O)C(CC)C1=NC(C)(C)Cc2ccccc21.O=[N+]([O-])c1cc([N+](=O)[O-])c(O)c([N+](=O)[O-])c1 (stereo unspecified)	inactive: 0.923%
